Experimental data taken from PMC2765782 (Journal of medicinal chemistry, 2009).

Assays:
RXR = target: T1, RXR (Homo sapiens, UniProt P19793); conditions: 10^−7 M, 24 h, Caco-2 cells, compound 1 set to 1.0 (Figure 3)
T1 sequence (P19793 227-462 limits assumed): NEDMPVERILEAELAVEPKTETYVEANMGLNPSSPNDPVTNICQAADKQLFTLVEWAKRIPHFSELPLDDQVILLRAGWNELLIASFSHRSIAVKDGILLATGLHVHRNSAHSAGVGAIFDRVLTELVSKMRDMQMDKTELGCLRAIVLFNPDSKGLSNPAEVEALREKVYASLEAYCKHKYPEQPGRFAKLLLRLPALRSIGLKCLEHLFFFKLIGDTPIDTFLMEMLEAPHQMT

[1] = tested on: Human T-cell lymphoma (CTCL) cells (Hut78)

Row | Compound | RXR binding and homodimerization relative to 1 (luciferase output) (RXR) | apoptotic activity (caspases 3 and 7) [1]
1 | C=C(c1ccc(C(=O)O)c([N+](=O)[O-])c1)c1cc2c(cc1C)C(C)(C)CCC2(C)C [Compound 16, 4-(1-(1,2,3,4-Tetrahydro-1,1,4,4,6-pentamethylnaphthalen-7-yl)vinyl)-2-nitrobenzoic Acid] | about half as well as 1 | statistically significantly greater than the ethanol vehicle control
2 | C=C(c1ccc(C(=O)O)c(F)c1)c1cc2c(cc1C)C(C)(C)CCC2(C)C [Compound 20, 2-fluoro-4-(1-(1,2,3,4-tetrahydro-1,1,4,4,6-pentamethylnaphthalen-7-yl)vinyl)benzoic acid] | better than 1 | statistically significantly greater than the ethanol vehicle control
